1 compound from patent US20050272770A1, “Compositions and treatments for inhibiting kinase and/or HMG-CoA reductase” (priority 2004, published 2005) can be followed below.

Sequences of proteins named here, by UniProt entry; tags and fusion partners are left off.
UniProt Q16539, whole entry: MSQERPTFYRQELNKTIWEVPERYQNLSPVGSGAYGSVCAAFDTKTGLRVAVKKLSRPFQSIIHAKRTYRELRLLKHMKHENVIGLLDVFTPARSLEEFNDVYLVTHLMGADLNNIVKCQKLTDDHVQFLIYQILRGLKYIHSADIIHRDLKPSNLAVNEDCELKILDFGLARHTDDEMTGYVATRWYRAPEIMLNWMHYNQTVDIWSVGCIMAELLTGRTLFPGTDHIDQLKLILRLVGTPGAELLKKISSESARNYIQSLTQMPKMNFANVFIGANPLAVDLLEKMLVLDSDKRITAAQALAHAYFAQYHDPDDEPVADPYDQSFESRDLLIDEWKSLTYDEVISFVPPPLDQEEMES

In this experiment the target is T1, human recombinant p38α protein kinase (Homo sapiens, UniProt Q16539).
T1 construct: purchased UBI 14-251; host or cells: E. coli
Briefly: Human p38α MAP kinase inhibition assay (cell-free, phosphorylation of myelin basic protein). The experiment is classed as biochemical. As to conditions: inhibition of phosphorylation of myelin basic protein by recombinant human p38α MAP kinase by 50%, Table III; read-out: IC50 p38α MAPK. The method, then: In vitro cell-free p38α MAP kinase inhibition assays were conducted by the method as described in Clerk et al., FEBS Lett., 426:93-96 (1998) for a number of lactones in formulas I/IIa/IIb. Briefly, human recombinant p38α protein kinase expressed in E. coli (UBI #14-251) was used. Myelin basic protein (MBP, UBI #13-110) was employed as substrate, and microtiter plate wells were coated with MBP (0.01 mg/ml) overnight at 4° C. Candidate compound and/or vehicle was preincubated with 0.075 μg/mL enzyme in modified HEPES buffer pH 7.4 at 25° C. for 15 minutes. The reaction was initiated by addition of 100 μM ATP and allowed to proceed for another 60 minutes. The reaction was terminated by aspirating the solution. Phosphorylated MBP was detected by incubation with a mouse monoclonal IgG2a anti-phosphoMBP antibody. Bound anti-phosphoMBP antibody was quantitated by incubation with a HRP conjugated goat anti-mouse IgG.

Usually IC50 stands for the concentration that inhibits the measured activity by half. Consider `O=C(O)C[C@H](O)C[C@H](O)CCc1c(-c2ccccc2)nn(-c2ccnc(Nc3ccccc3)n2)c1-c1ccccc1` [Example 11c, (3R,5R)-7-(3,5-diphenyl-1-(2-(phenylamino)pyrimidin-4-yl)-1H-pyrazol-4-yl)-3,5-dihydroxyheptanoic acid], for which the IC50 worked out at 32 µM.
